In patent EP1353939B1, “TETRAPEPTIDE REGULATING PROSTATE FUNCTIONS AND ITS COMPOSITIONS AND USES” (Sankt-Peterburgskaya Obschestvennaya Organizatsia …, priority 2001, dated 2004):

What was measured:
[1] = rats, i.m. 1 µg/kg, 0.3 mg/kg, 3 mg/kg once a day for 90 days
[2] = rats, i.m. 1 µg/kg, 0.1 mg/kg, 1 mg/kg once a day for 6 months
[3] = mice, single i.m. 1-5 mg/kg

lysyl-glutamyl-aspartyl-proline [Lys-Glu-Asp-Pro tetrapeptide]
side effects (subacute toxicity) [1]: lack of any side effects
pathologic alterations (general state, peripheral blood indices, intrinsic organs, cardiovascular and respiratory systems, liver and kidney functions) [2]: no pathologic alterations
side effects (chronic toxicity) [2]: lack of any side effects
alterations in general state, behaviour, motor activity, hair and skin integument, physiological discharge [3]: No alterations
animals died ([3]; during 72 hours and later in 14 days): none of the animals died
